Experimental data taken from patent publication US8580762B2, “Substituted purine and 7-deazapurine compounds” (Epizyme, Inc., priority 2010, dated 2013).

Chains of the proteins cited; added tags and fusions are not shown. Residues count along the entry.
UniProt Q8TEK3, 1-416: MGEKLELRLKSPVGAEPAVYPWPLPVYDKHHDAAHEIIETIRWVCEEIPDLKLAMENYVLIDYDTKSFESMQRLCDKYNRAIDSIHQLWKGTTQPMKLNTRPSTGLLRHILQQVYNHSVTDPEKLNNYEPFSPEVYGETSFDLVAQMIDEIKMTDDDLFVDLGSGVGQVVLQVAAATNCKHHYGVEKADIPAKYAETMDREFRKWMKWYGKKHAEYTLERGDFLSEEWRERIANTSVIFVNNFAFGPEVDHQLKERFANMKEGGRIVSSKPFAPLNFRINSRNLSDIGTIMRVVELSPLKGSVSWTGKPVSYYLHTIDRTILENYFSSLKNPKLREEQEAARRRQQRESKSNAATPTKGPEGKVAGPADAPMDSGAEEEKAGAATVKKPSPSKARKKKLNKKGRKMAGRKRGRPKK

Target: DOT1L(1-416) (Homo sapiens, UniProt Q8TEK3)
Assay: Determination of IC50: DOT1L(1-416) methyltransferase assay, 3H-SAM, oligonucleosome substrate, Flashplate
Format: biochemical
Experimental: Determination of IC50. Test compounds were serially diluted 3 fold in DMSO for 10 points and 1 μl was plated in a 384 well microtiter plate. […] 10 μl per well of substrate mix (same assay buffer with 200 nM S-[methyl-^3H]-adenosyl-L methionine, 600 nM of unlabeled […], and 20 nM oligonueleosome) was added to initiate the reaction. Reaction was incubated for 120 minutes at room temperature and quenched with 10 μl per well of 100 μM S-methyl-adenosyl-L methionine. For detection, substrate from 50 μl of reaction was immobilized on a 384 well Streptavidin coated Flashplate (Perkin Elmer) (also coated with 0.2% polyethyleneimine) and read on a Top Count scintillation counter (Perkin Elmer).

| Structure (SMILES) | IC50 (class symbols) | IC50 |
| --- | --- | --- |
| CN(C[C@H]1C[C@@H](n2ccc3c(N)ncnc32)[C@H](O)[C@@H]1O)[C@H]1C[C@H](CCc2nc3cc(C(C)(C)C)ccc3[nH]2)C1 (single isomer, unassigned) [Compound 35] | < 0.1 µM |  |
| CN(C[C@H]1C[C@@H](n2ccc3c(N)ncnc32)[C@H](O)[C@@H]1O)[C@H]1C[C@@H](CCc2nc3cc(C(C)(C)C)ccc3[nH]2)C1 (single isomer, unassigned) [Compound 32] | < 0.1 µM |  |
| CN(C[C@H]1C[C@@H](n2ccc3c(N)ncnc32)[C@H](O)[C@@H]1O)[C@H]1C[C@H](CCc2nc3cc(C(C)(C)C)ccc3[nH]2)C1 [Compound 70, (1R,2S,3R,5R)-3-(4-amino-7H-pyrrolo[2,3-d]pyrimidin-7-yl)-5-((((1s,3R)-3-(2-(5-(tert-butyl)-1H-benzo[d]imidazol-2-yl)ethyl)cyclobutyl)(methyl)amino)methyl)cyclopentane-1,2-diol] | < 0.1 µM |  |
| CN(C[C@H]1C[C@@H](n2ccc3c(N)ncnc32)[C@H](O)[C@@H]1O)C1CC(CCc2nc3cc(C(C)(C)C)ccc3[nH]2)C1 (stereo partly drawn) [Compound 14, (1R,2S,3R,5R)-3-(4-amino-7H-pyrrolo[2,3-d]pyrimidin-7-yl)-5-(((3-(2-(5-(tert-butyl)-1H-benzo[d]imidazol-2-yl)ethyl)cyclobutyl)(methyl)amino)methyl)cyclopentane-1,2-diol] | < 0.1 µM |  |
| CN(C[C@H]1C[C@@H](n2ccc3c(N)ncnc32)[C@H](O)[C@@H]1O)[C@H]1C[C@@H](CCc2nc3cc(C(C)(C)C)ccc3[nH]2)C1 [Compound 69, (1R,2S,3R,5R)-3-(4-amino-7H-pyrrolo[2,3-d]pyrimidin-7-yl)-5-((((1r,3S)-3-(2-(5-(tert-butyl)-1H-benzo[d]imidazol-2-yl)ethyl)cyclobutyl)(methyl)amino)methyl)cyclopentane-1,2-diol] | < 0.1 µM | 0.00251 µM |

Read-outs that look alike come from different tables or passages of the source.
